Tn6 DDE FP: inhibitors of Tn6 peptide binding to human fibrin DD(E); P02675; Fibrin DD(E) TRITC-Tn6 fluorescence polarization displacement; inhibition, % at 8.3 µM; 370,000 tested, 0.21% active; AID 720509;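 active means inhibition above a per-campaign cutoff: mean of compounds within control limits plus 3 SD, cut at about 15% in these data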;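 further: 0% = median of all compound wells on the plate and 100% = blocking peptide control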
PglD DTNB: PglD (C. jejuni) enzyme inhibition; purified PglD enzyme, DTNB colorimetric CoA detection; inhibition, % at 12.5 µM; 360,000 tested, 0.098% active; AID 602405; in the data active means inhibition above about 16%, passing the limit was not always enough
Yeast UUG start: yeast start codon fidelity modulation; AID 602363; activity score, % at 18.7 µM; S. cerevisiae UUG-firefly luciferase reporter, luminescence/redox ratio; 0.13% of 350,000 active;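 active means replicate mean at a twofold rise or more, about +100% in these data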;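 further: firefly luciferase made from a UUG start codon reports start codon fidelity; reporter light over untreated wells divided by growth signal over untreated wells; some hits fall short of that in this replicate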
DDE Tn7 FP inh: inhibitors of Tn7 peptide binding to human fibrin DD(E); P02675; FP displacement of FITC-Tn7 peptide from fibrin DD(E); 0% = median of compound wells per plate; inhibition, % at 8.3 µM; 370,000 tested, 0.13% active;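 active means inhibition above the mean of compounds falling within the control limits plus 3 SD of them, cut at about 14% in these data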;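 further: 0% = plate median of compound wells and 100% = 10 µM Aha-Tn7 peptide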
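Assay system: human fibrin DD(E). Input: DD(E) 2 µM final. Medium: Tris buffer with calcium and detergent, pH 7.8. Compound dosing: single point at 8.3 µM. Timing: 10 min plus 3 h, room temperature. Technique: fluorescence polarization of the labelled Tn7 tracer. Read-out: percent inhibition. Replicates: singlicate testing.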
PglD confirm: blocks Campylobacter jejuni PglD acetyltransferase activity; Purified C. jejuni PglD, DTNB absorbance 412 nm; 320 tested, under 10 active; shares compounds with PglD DTNB; inhibition, % at 20 µM;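 active means mean inhibition across replicates of at least 20% with every single replicate also at 20% or more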;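 further: initial rate of CoA release by acetyl transfer from AcCoA to the UDP-4-amino sugar; 0% = median of neutral control wells and 100% = median of positive control wells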
* hit, by the source's call; nt = no result given. The list is not random: actives were taken first. Their share in the collection is about 0.45%.

No. | Tn6 DDE FP | PglD DTNB | Yeast UUG start | DDE Tn7 FP inh | PglD confirm | SMILES
1 | 0.7 | 6.5 | -8.6 | 1.3 | nt | CCCCOCCCNC(=O)N[C@H](C(=O)O)C(C)CC (stereo not given in full)
2 | -0.8 | 27.1* | -4.0 | -2.4 | -3.7 | CCC(C)[C@H](NC(=O)NC1CC1)C(=O)O (stereo not given in full)
3 | 0.4 | nt | nt | 0.0 | nt | CCOC(=O)c1[nH]c(C)c(C(=O)OC)c1C
4 | 4.8 | 24.8* | -2.8 | -0.3 | -1.0 | CCOC(=O)c1[nH]c(C)c(C)c1C
5 | 4.0 | 23.8* | -10.3 | 5.7 | -0.8 | COc1ccc(/C(O)=C2/C(=O)C(=O)N(CCCN3CCOCC3)C2c2ccc(Cl)cc2)cc1 (stereo not given)
6 | nt | 3.3 | 7.3 | nt | nt | O=C(CCN1CCCCC1)NCC[C@H]1CC[C@@H](NC(=O)C2CCCC2)[C@@H](CO)O1
7 | -5.2 | 3.0 | -6.4 | 4.5 | nt | Cc1cccc(Cn2c(=O)n(Cc3ccco3)c(=O)c3ccccc32)c1
8 | -4.5 | 42.0* | -10.8 | 4.3 | 6.9 | Cc1ccccc1Cn1c(=O)n(Cc2ccco2)c(=O)c2ccccc21
9 | -1.7 | 26.1* | -7.4 | -9.9 | 5.6 | COc1ccc(-c2cnnc(N/N=C/c3ccc(O)c(OC)c3)n2)cc1
10 | -6.9 | nt | nt | -1.8 | nt | COc1ccc(-c2cc(C(=O)NN=Cc3ccc(O)c(OC)c3)[nH]n2)cc1
11 | nt | 4.7 | nt | nt | nt | CO[C@@H]1CN(C)C(=O)c2ccc(NC(=O)Cc3ccccc3)cc2OC[C@@H](C)N(C(=O)c2ccccc2F)C[C@@H]1C
12 | -7.0 | 30.9* | 7.3 | 0.3 | -1.7 | COC(=O)c1c(C(=O)OC)c(C)n(Cc2cccnc2)c1C
13 | -6.3 | 24.5* | 1.0 | -5.4 | 48.5* | CC(=O)NC1C(=O)N(CCN2CCOCC2)c2ccc(Cl)cc21 (stereo not given)
14 | nt | 0.9 | 20.7 | nt | nt | C=CC[C@]1(C(=O)N(C)C)N=C(c2ccc(OCCCO)cc2)O[C@H]1c1ccccc1
15 | 5.8 | 20.8* | -10.2 | 8.0 | 2.7 | COc1ccc(OC)c(C(=O)CN2CCN(S(=O)(=O)c3ccc(Br)cc3)CC2)c1
16 | -7.9 | -0.9 | 2.0 | -6.5 | nt | COc1ccc(S(=O)(=O)N2CCN(CCOc3ccc(Br)cc3)CC2)cc1OC
17 | -6.8 | 3.1 | -20.3 | 4.8 | nt | C=CCOC(=O)C1=C(C)NC(=S)NC1/C=C/c1ccccc1 (stereo not given)
18 | -11.3 | 21.3* | -21.7 | 2.3 | -1.3 | CC1=C(C(=O)OCc2ccccc2)C(/C=C/c2ccccc2)NC(=S)N1 (stereo not given)
19 | nt | -1.2 | -1.3 | nt | nt | CCCC#Cc1ccc2c(c1)O[C@H](CN(C)C(=O)COC)[C@@H](C)CN([C@@H](C)CO)S2(=O)=O
20 | nt | 1.5 | nt | nt | nt | C[C@H](CO)N1C[C@H](C)[C@H](CN(C)Cc2ccncc2)OCCCC[C@H](C)Oc2ccc(NC(=O)c3ccncc3)cc2C1=O

An excerpt from above in order of the DDE Tn7 FP inh value, falling:
No. | Tn6 DDE FP | PglD DTNB | Yeast UUG start | DDE Tn7 FP inh | PglD confirm | SMILES
18 | -11.3 | 21.3* | -21.7 | 2.3 | -1.3 | CC1=C(C(=O)OCc2ccccc2)C(/C=C/c2ccccc2)NC(=S)N1 (stereo not given)
1 | 0.7 | 6.5 | -8.6 | 1.3 | nt | CCCCOCCCNC(=O)N[C@H](C(=O)O)C(C)CC (stereo not given in full)
3 | 0.4 | nt | nt | 0.0 | nt | CCOC(=O)c1[nH]c(C)c(C(=O)OC)c1C
4 | 4.8 | 24.8* | -2.8 | -0.3 | -1.0 | CCOC(=O)c1[nH]c(C)c(C)c1C
9 | -1.7 | 26.1* | -7.4 | -9.9 | 5.6 | COc1ccc(-c2cnnc(N/N=C/c3ccc(O)c(OC)c3)n2)cc1

Following part
No. | Tn6 DDE FP | PglD DTNB | Yeast UUG start | DDE Tn7 FP inh | PglD confirm | SMILES
21 | -1.2 | 83.3* | -28.4 | 1.2 | -5.8 | CCOc1ccc(-c2n[nH]c(C(=O)NN)c2C)cc1
22 | -1.4 | 41.1* | -9.5 | 0.8 | 5.2 | CCOC(=O)C1CCN(S(=O)(=O)c2ccc3c(c2)CC(=O)N3C)CC1
23 | 0.3 | 24.0* | -13.0 | 1.9 | -6.2 | CC(=O)Nc1nc(C)c(S(N)(=O)=O)s1
24 | 7.7 | 0.4 | -7.8 | 7.8 | nt | CC(=O)Nc1nnc(S(N)(=O)=O)s1
25 | -2.8 | -0.2 | -2.8 | -0.6 | nt | Cc1ccc(C(=O)NCCNc2nc3cc(C)c(C)cc3cc2C)cc1
26 | -10.8 | 41.4* | -18.4 | -5.4 | -2.7 | COCC(=O)NCCNc1nc2ccc(C)cc2cc1C
27 | 2.3 | 58.0* | -7.2 | -3.9 | 3.8 | CCCc1cc(C(=O)NC2CCCC2)no1
28 | 3.2 | 0.6 | -3.9 | 1.6 | nt | CC1CCCN(S(=O)(=O)c2ccc(Br)s2)C1 (stereo not given)
29 | -3.2 | 25.8* | -15.3 | -11.5 | 11.8 | CC1CCCN(S(=O)(=O)c2ccc(Cl)s2)C1 (stereo not given)
30 | nt | -1.1 | 18.6 | nt | nt | C[C@H](CO)N1C[C@H](C)[C@@H](CN(C)C(=O)Nc2ccccc2)Oc2ncc(-c3ccccc3)cc2C1=O
31 | 5.6 | 25.4* | -22.0 | 7.9 | 1.5 | CC(=O)c1cccc(-c2cnc3c(NC=O)cc(-c4ccccc4F)cn23)c1
32 | -1.9 | -1.1 | -14.5 | 7.4 | nt | CC(=O)Nc1cc(-c2ccccc2F)cn2c(-c3ccccc3)cnc12
33 | nt | 6.9 | 12.8 | nt | nt | CCCc1cn(CC[C@H]2CC[C@@H](NC(=O)C3CCCC3)[C@@H](CO)O2)nn1
34 | 3.9 | 26.2* | -18.3 | 4.7 | -2.0 | COc1ccc(NC(=O)CC2SC(=NCC3CCCO3)NC2=O)cc1 (stereo not given)
35 | -5.1 | nt | nt | 5.4 | nt | Cc1ccc(NC(=O)CC2SC(=NCC3CCCO3)NC2=O)cc1Cl (stereo not given)
36 | nt | 0.0 | 27.4 | nt | nt | C[C@H](CO)N1C[C@H](C)[C@H](CN(C)C(=O)Cc2ccccc2)OCCCC[C@H](C)Oc2ccc(NC(=O)C3CCCCC3)cc2C1=O
37 | -1.5 | 20.5* | -14.9 | -0.6 | -3.0 | CS(=O)(=O)N(CC(=O)NCCSc1ccccn1)c1cccc2ccccc12
38 | nt | 5.9 | 0.2 | nt | nt | C/C=C/c1cnc2c(c1)C(=O)N([C@H](C)CO)C[C@H](C)[C@H](CN(C)C(=O)Nc1c(C)noc1C)O2
39 | -2.4 | -6.8 | -9.9 | 4.2 | nt | CCOC(=O)CSc1nnc2c3ccccc3n(C)c2n1
40 | 9.2 | 46.9* | -21.4 | 7.5 | 0.8 | Cn1c2ccccc2c2nnc(SCC(N)=O)nc21

Continued:
No. | Tn6 DDE FP | PglD DTNB | Yeast UUG start | DDE Tn7 FP inh | PglD confirm | SMILES
41 | -3.0 | -0.6 | -17.6 | -0.9 | nt | O=C(NCCCN=C1NS(=O)(=O)c2ccccc21)c1ccc(F)cc1
42 | 1.0 | 25.0* | -26.4 | 5.4 | 1.5 | O=C(NCCCN=C1NS(=O)(=O)c2ccccc21)c1ccncc1
43 | nt | -1.7 | 26.3 | nt | nt | COc1ccc(NC(=O)Nc2ccc3c(c2)CC(=O)N([C@H](C)CO)C[C@H](C)[C@H](CN(C)C(=O)Nc2ccc(F)cc2)O3)cc1
44 | -3.6 | 20.2* | -15.1 | 1.3 | -0.1 | O=C1NC2(CCCCCC2)C(=O)N1Cc1cccc([N+](=O)[O-])c1
45 | nt | 0.4 | -0.9 | nt | nt | C[C@@H]1CN([C@H](C)CO)C(=O)c2cc(C#Cc3ccccc3)cnc2O[C@@H]1CN(C)C(=O)CCN1CCCCC1
46 | nt | 10.5 | 5.9 | nt | nt | COc1ccc(NC(=O)N(C)C[C@H]2Oc3c(NC(=O)c4ccc(-c5nccs5)cc4)cccc3C(=O)N([C@H](C)CO)C[C@@H]2C)cc1
47 | 6.2 | 23.8* | -11.1 | -4.6 | 2.9 | CC(C)c1cccc(-c2csc(C(C)(O)c3ccc(F)c(F)c3)n2)c1 (stereo not given)
48 | 5.1 | 2.0 | -12.4 | 0.3 | nt | CC(O)(c1ccc(F)c(F)c1)c1nc(-c2cccc(F)c2)cs1 (stereo not given)
49 | nt | 1.5 | -1.8 | nt | nt | CN(C)c1ccc2c(c1)[C@@H]1C[C@@H](CC(=O)NCc3ccc(-c4ccccc4)cc3)O[C@H](CO)[C@@H]1O2
50 | 2.2 | 36.4* | -41.9 | -4.8 | 0.0 | c1csc(-c2ccc3nncn3c2)c1
51 | -1.5 | 7.8 | -14.5 | -4.7 | nt | OCc1ccccc1-c1ccc2nncn2c1
52 | 4.1 | -5.3 | 5.7 | -3.6 | nt | CSC[C@H](NC(=O)COc1cc2c(c3oc(=O)c(C)c(C)c13)CCC(C)(C)O2)C(=O)O
